Results published in patent US20050288347A1, “Certain triazole-based compounds, compositions, and uses thereof” (priority 2004, published 2005).

Target: protein kinase
Experiment: HTS ATP-utilizing enzyme assay, off-chip mobility-shift format (Caliper HTS 250)
Format: biochemical, human
Description: The following procedures describe the reagent and plate preparation for a HTS of an ATP-utilizing enzyme, such as a protein kinase, run in an off-chip mobility-shift assay format. The following provides an HTS protocol for running a protein kinase HTS screen on a Caliper HTS 250 microfluidics system. The following parameters are dependent on the protein kinase used and can be determined by one skilled in the art as part of a typical assay development process. For example, the peptide substrate used can be identified from the current literature, by screening a peptide library of potential protein kinase substrates, or by other applicable means accepted in the field.
The following table provides typical screen assay parameters appropriate for a Caliper HTS 250 microfluidics system. […]
Assays to determine the kinase inhibitory activity of chemical entities of the present disclosure were performed using a Caliper HTS 250 microfluidics device, Greiner U-bottom assay plates, a Multidrop for transfer of reagents, and Biomek FX (AMNCBM03) software. […] The inhibition of the ATP-utilizing enzyme, such as a particular protein kinase, was determined by measuring the ratio of the peptide substrate to phosphorylated product for each well of the assay plate using the Caliper HTS 250 system. […]

SMILES: CCn1c(CNc2ccc(OC)cc2)nnc1SCC(=O)N1CCCc2ccccc21
- Kinase: PDGFRR-α and FYN
